pEC50: −log10 of the molar value.
Biological target: human δOR β-arrestin2 (Homo sapiens, UniProt P41143)
Format: cell-based

With TAN67 the “β-arr2 Emax ± SEM” value was 26 ± 3% and the pEC50 (read-out: β-arr2 EC50) was 8.96.
